Experimental data taken from patent publication US5807824A, “C5A receptor antagonists having substantially no agonist activity” (priority 1995, dated 1998).

How the values were obtained:
C5a receptor [1] = target: T1, C5a receptor (Homo sapiens, UniProt P21730); test: C5a induced Ca++ rise assay in fura-2 loaded neutrophils; type: cell-based; details: Table 6, Example 10 comparison with decapeptide
T1 construct: Neutrophils were purified from human peripheral blood; endogenous in cells; host or cells: neutrophils from human peripheral blood
T1 sequence (P21730 1-350): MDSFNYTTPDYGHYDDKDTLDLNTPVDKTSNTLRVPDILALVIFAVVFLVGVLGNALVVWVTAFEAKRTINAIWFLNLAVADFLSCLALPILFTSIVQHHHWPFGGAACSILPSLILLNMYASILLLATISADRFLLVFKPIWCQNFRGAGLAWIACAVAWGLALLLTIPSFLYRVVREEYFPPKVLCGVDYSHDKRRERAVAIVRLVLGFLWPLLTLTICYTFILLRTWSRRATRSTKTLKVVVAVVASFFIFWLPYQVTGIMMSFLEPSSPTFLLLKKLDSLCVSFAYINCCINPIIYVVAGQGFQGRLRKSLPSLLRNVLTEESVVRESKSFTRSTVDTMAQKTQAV
Text: The antagonism of the instant C5a analogues may be quantified as an IC50 in the calcium rise assay disclosed in Seligmann et al., Agents and Actions 21:375-378 (1987), described in detail in Example 7.
See Hugli et al., CRC Crit. Rev. Immunol. 1:321-326 (1981) and PCT WO 92/10205. A quantitative measure of this property may also be obtained using the calcium rise assay disclosed in Seligmann et al., supra, also described in Example 7. EC50 is a measure of agonistic activity. For purposes of the present invention, the EC50 value is that concentration of C5a analogue which produces 50% of the maximum response caused by that same C5a analogue. Applicants have not detected agonist activity of the instant C5a analogues up to a concentration of at least about 8.0×10^-7 M, and preferably at least about 3.0×10^-6 M in the same calcium rise assay.
Recombinant human C5a was dissolved in Hanks buffer containing 0.01% Tween-20, and all stock dilutions of C5a were made in this buffer. […] The amount of fluorescence was determined using an SLM 8000 spectrofluorometer (SLM-Aminco Instruments, Urbana, Ill.). Curvettes were placed in the fluorometer and after obtaining a baseline for 10 sec, the C5a receptor antagonists to be tested for antagonistic properties were added and any change in fluoresence excitation ratio of 340 nm/380 nm (emission of 510 nm) was measured. […]

C5a receptor [2] = target: T1, C5a receptor; test: Receptor binding assay: displacement of [125I]Bolton-Hunter labelled C5a from PMNL membranes; details: Table 6, Example 10 comparison with decapeptide
Experimental: C5a and C5a receptor antagonists were tested for their affinity for the C5a receptor. […] PMNLs were resuspended in Hanks balanced salt solution, without Ca^++ and Mg^++ and which contained 10 mM HEPES at pH 7.3, 2.5 mM MgCl2, 100 units/ml DNAse I, 0.1 mM PMSF, 10 μg/ml aprotonin and 10 μg/ml leupeptin. They were then equilibrated at 400 psi for 20 min at 4° C. in a nitrogen cavitation bomb. After evacuation into 3 volumes 0.5M KHCO3 containing 25 mM EDTA and the protease inhibitors listed above, the gelatinous material was removed with forceps and the mixture was centrifuged at 400×g for 10 min at 4° C. The resulting supernatant was centrifuged at 50,000×g for 60 min at 4° C. The pellets from the aliquots representing 200×10^6 cells were stored at -70° C. […]
Nonspecific binding was determined in the presence of 10 nM unlabelled C5a. […] Bound and free radioactivity were separated by vacuum filtration through GF/C glass fiber filters (Whatman), pretreated for 90 min with 0.05% PEI (polyethyleneimine) using a Cell Harvester (Brandel, Gaithersburg, Md.). Filters were washed with 3×5 ml of ice-cold 5 mM Tris buffer at pH 7.4 and counted in a multiwell Gamma counter (Genesys). Data were analyzed using the non-linear regression analysis program, RS/1 (Bolt, Beranek and Newman, Boston) and expressed as IC50 values. […]

CC[C@H](C)[C@H](N)C(=O)N[C@@H](CO)C(=O)N[C@@H](Cc1ccccc1)C(=O)N[C@@H](CCCCN)C(=O)N[C@@H](CC(=O)O)C(=O)N[C@@H](CCSC)C(=O)N[C@@H](CCC(N)=O)C(=O)N[C@@H](CC(C)C)C(=O)NCC(=O)N[C@@H](CCCN=C(N)N)C(=O)O [Decapeptide, reference compound]
EC50 (C5a receptor [1]): 2.06 µM | Ki (C5a receptor [2]): 5 µM
